Results: patent US12173004B2, “Pharmaceutical compositions comprising heterocycle fused gamma carboline prodrugs” (INTRA-CELLULAR THERAPIES, INC., priority 2017, dated 2024)

System: Male CD-1 mice
Conditions: 10 mg/kg 30 min before test; naloxone 3 mg/kg i.p. pre-treatment

O=C1CN2c3c(cccc3[C@@H]3CN(CCCOc4ccc(F)cc4)CC[C@@H]32)N1 [Example 2, (6bR,10aS)-8-(3-(4-fluorophenoxy)propyl)-6b,7,8,9,10,10a-hexahydro-1H-pyrido[3′,4′:4,5]pyrrolo[1,2,3-de]quinoxalin-2(3H)-one] showed a mean latency of 2.1 s.
